The values that follow are results of earlier work, collected in paper PMC12355554, “Development of novel mitochondrial pyruvate carrier inhibitors for breast cancer treatment” (The Journal of Biological Chemistry, 2025).

The conditions of this data set: no reference given; cited from earlier work.

For the compound `NC(CO)(CO)CO` [Tris base], the pKa was 8.07.

One may read the pKa as the negative logarithm of the acid dissociation constant.
